{"source": "patent US10799478B2", "about": "“Treatment of androgen deprivation therapy associated symptoms” (priority 2014, dated 2020)", "key": {"[1]": {"test": "6 month treatment of dogs (Table 10)", "conditions": "male, dog, in vivo"}, "healthy volunteers": {"tested_on": "healthy volunteers", "test": "Treatment of healthy volunteers (12 weeks)", "assay_type": "in vivo, human"}, "Sprague-Dawley rat": {"tested_on": "Sprague-Dawley rat", "conditions": "150 mg/kg/day recovery group", "procedure": "Vehicle controls (15 rats/sex in main study and 5 rats/sex in recovery study) are given daily oral gavage dose of 5% Vitamin E TPGS, 1% hydroxyethylcellulose, 0.05% Dow Corning Antifoam 1510-US in purified water. Fifteen males and 15 females are assigned to each treatment main study group. Five males and 5 females are assigned to the recovery study for the vehicle control and 150 mg/kg/day groups. […] All administrations are given in a 15 mL/kg volume."}, "healthy human volunteers [2]": {"tested_on": "healthy human volunteers", "test": "Phase Ib Study of Healthy Volunteers", "assay_type": "in vivo", "conditions": "eugonadal healthy human volunteers"}, "Orx rats": {"tested_on": "Orx rats", "test": "Orchidectomized Rat Assay", "assay_type": "in vivo", "conditions": "treatment of 8 weeks in rat orchidectomized for 8 weeks"}, "healthy human volunteers [3]": {"tested_on": "healthy human volunteers", "test": "Phase Ia Study in Healthy Volunteers", "assay_type": "in vivo"}}, "data": [{"smiles": "CC(C)OC(=O)N[C@H]1Cc2c(n(Cc3ccccn3)c3ccc(C#N)cc23)C1", "note": "(single isomer, unassigned) [Example 1]", "values": [{"measurement": "AUC(0-t)", "setting": "[1]; 3 mg/kg/day", "result": 6490, "unit": "ng·h/mL"}, {"measurement": "AUC(0-t)", "setting": "[1]; 30 mg/kg/day", "result": 44400, "unit": "ng·h/mL"}, {"measurement": "fat mass", "setting": "healthy volunteers", "result": "decrease"}, {"measurement": "lean muscle mass", "setting": "healthy volunteers", "result": "increase"}, {"measurement": "effects on male reproductive tissues and LH and testosterone, reversibility", "setting": "Sprague-Dawley rat", "result": "reversed by the end of the 12-week recovery period"}, {"measurement": "N-terminal propeptide of procollagen type 1 (P1NP), biomarker for bone anabolism", "setting": "healthy human volunteers [2]", "result": "positive exposure-response relationship"}, {"measurement": "serum testosterone levels", "setting": "healthy human volunteers [2]; more pronounced in males", "result": "decrease"}, {"measurement": "accrual of seminal vesicle weight", "setting": "Orx rats", "result": "no significant accrual"}, {"measurement": "lumbar vertebra cross-sectional area (LV-TA)", "setting": "Orx rats", "result": "trend towards increase"}, {"measurement": "lumbar vertebra trabecular bone mineral content (LV-TBMC)", "setting": "Orx rats", "result": "trend towards increase"}, {"measurement": "lumbar vertebra trabecular bone mineral density (LV-TBMD)", "setting": "Orx rats", "result": "significant accrual"}, {"measurement": "calf muscle area by peripheral Computer Tomography at the gastrocnemius bundle", "setting": "healthy human volunteers [3]; healthy human volunteers", "result": "increase"}, {"measurement": "whole body lean muscle mass by DEXA", "setting": "healthy human volunteers [3]; healthy human volunteers", "result": "increase"}, {"measurement": "whole body lean muscle mass effect compared to 0 mg placebo, Dunnett's test (p<0.05)", "setting": "healthy human volunteers [3]; males, 5 mg dose level", "result": "statistically significant"}]}]}
